Data on two substances can be found in patent US20260072036A1, “BICYCLONONYNE REAGENTS FOR CELL IMAGING” (The General Hospital Corporation, priority 2022, published 2026).

The nature of assay [1]: Quenching kinetics of FAST-antibodies with BHQ3-Tz. The protocol:
(§1) CP or BCN FAST-labeled antibodies were stored in PBS at 4° C. at concentrations of 5-15 μM after labeling. Disposable polystyrene cuvettes were blocked with 2 mL 1% BSA in PBS which was then removed and replaced with a 0.01% BSA solution in PBS to reduce nonspecific adsorption of the antibodies. Time-based fluorescence acquisitions at the appropriate dye-specific wavelengths were initiated, and the baseline emission of the buffer solutions measured. FAST-labeled antibodies were diluted into the blocked cuvette to a concentration of 4-10 nM and after measuring initial fluorescence, 10-20 μL of either Tz-BHQ3 or Azide-BHQ3 were added via the instrument's sample addition port and data acquisition continued until the quenching reaction was complete.
(§2) Data were analyzed in GraphPad Prism 9 (Graphpad Software). For FAST-labeled antibodies, curves were fitted to a double exponential (two phase) decay with the time of BHQ3 addition set to t=0 for fitting purposes.
The unaccelerated reaction rate of BCN-PEG2-amine with benzylamino-tetrazine was measured on a stopped flow spectrophotometer as previously published (Carlson, J. C. T., et al., Unraveling Tetrazine-Triggered Bioorthogonal Elimination Enables Chemical Tools for Ultrafast Release and Universal Cleavage. J Am Chem Soc 140, 3603-3612 (2018)). Data were analyzed in GraphPad Prism 9 (Graphpad Software) and second order rate constants were calculated from the second order rate equation (Kinetics and Mechanism) using the nonlinear fits of the absorbance vs. time curves.

The nature of assay [2]: Quenching kinetics of FAST-antibodies with Azide-BHQ3. The method, then: as §1, §2

As for “cetuximab-BCN-AF647: cetuximab labeled with BCN-AF647 FAST probe”, the “reaction rate compared to predicted values” in assay [1] (BHQ3-Tz) is reported as “dramatically enhanced reaction rate”. In assay [1] (after addition of BHQ3-Tz), the “acceleration of the quenching reaction vs predicted kinetics for the Tz reaction alone” value is given as “about 1400 fold” and the “effective second order rate constant” value amounted to 4.5e+06 M⁻¹ s⁻¹. In assay [2] (10 μM azide-BHQ3, routine imaging conditions), the “reaction timeframe, predicted vs accelerated” value is “from one week to two minutes”. Besides, in assay [2] (Azide-BHQ3, biphasic process), the “effective rate constant for the slow component” value came to 6700 M⁻¹ s⁻¹. In assay [2] (azide-BHQ3), the “acceleration vs underlying azide-alkyne reaction kinetics” value was over 5000 fold and the “reaction rate compared to predicted values” is “dramatically enhanced reaction rate”.
For the substance “cetuximab-CP-AF647: cetuximab labeled with CP-AF647 FAST probe [reference compound]”, in assay [1] (BHQ3-Tz), the “expected time for complete reaction at the experimental concentration, predicted vs accelerated” value is given as “from months to hours”. Moreover, the “acceleration of the quenching reaction vs predicted kinetics” value in assay [1] (after addition of BHQ3-Tz) is 500 ×.
